According to PubChem BioAssay (EPA / NIEHS):
This is a selection; strong and weak results do not stand in their true shares. Activity calls are given as the source filed them. The calls were made as follows: active = hit-call score of the fitted dose curve at least 0.9, where 1 is the maximum; inactive = score below 0.9.

Amino acid sequences for entries named in this document (tags omitted).
UniProt Q96RI1, whole entry: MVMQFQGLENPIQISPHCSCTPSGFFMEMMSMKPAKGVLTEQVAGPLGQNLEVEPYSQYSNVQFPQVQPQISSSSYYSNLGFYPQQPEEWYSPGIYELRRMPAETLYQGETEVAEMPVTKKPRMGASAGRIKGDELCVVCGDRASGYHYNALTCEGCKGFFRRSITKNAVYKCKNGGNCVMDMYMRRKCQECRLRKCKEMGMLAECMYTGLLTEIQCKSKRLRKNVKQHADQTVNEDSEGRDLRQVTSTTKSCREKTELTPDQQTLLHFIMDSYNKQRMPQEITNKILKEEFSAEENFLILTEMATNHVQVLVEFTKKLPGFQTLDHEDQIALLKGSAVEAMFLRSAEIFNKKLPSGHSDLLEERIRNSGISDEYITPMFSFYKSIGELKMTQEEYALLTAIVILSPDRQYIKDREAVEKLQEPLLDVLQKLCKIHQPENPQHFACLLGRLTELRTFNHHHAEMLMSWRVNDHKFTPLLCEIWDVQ
UniProt Q16665, whole entry: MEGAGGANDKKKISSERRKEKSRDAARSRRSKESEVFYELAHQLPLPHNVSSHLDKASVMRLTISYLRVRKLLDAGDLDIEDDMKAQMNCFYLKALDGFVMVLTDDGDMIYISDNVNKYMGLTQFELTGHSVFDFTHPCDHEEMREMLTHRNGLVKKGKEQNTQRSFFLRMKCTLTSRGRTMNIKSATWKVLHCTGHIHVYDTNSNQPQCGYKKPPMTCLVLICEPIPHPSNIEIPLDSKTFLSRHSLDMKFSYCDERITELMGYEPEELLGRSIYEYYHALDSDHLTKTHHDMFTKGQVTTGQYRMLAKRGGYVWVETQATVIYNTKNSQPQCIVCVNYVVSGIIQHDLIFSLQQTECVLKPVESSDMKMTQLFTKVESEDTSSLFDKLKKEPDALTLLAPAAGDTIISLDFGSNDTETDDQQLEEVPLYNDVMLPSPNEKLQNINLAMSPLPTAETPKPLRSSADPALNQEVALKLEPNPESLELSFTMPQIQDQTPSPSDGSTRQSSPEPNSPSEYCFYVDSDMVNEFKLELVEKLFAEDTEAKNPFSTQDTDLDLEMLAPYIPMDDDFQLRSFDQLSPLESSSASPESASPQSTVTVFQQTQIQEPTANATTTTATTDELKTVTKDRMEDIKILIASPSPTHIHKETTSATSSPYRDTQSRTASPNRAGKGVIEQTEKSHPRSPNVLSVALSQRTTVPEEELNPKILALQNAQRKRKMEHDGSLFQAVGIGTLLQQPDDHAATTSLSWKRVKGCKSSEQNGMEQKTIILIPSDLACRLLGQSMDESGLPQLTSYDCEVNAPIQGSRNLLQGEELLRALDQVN
UniProt Q9UBC0, whole entry: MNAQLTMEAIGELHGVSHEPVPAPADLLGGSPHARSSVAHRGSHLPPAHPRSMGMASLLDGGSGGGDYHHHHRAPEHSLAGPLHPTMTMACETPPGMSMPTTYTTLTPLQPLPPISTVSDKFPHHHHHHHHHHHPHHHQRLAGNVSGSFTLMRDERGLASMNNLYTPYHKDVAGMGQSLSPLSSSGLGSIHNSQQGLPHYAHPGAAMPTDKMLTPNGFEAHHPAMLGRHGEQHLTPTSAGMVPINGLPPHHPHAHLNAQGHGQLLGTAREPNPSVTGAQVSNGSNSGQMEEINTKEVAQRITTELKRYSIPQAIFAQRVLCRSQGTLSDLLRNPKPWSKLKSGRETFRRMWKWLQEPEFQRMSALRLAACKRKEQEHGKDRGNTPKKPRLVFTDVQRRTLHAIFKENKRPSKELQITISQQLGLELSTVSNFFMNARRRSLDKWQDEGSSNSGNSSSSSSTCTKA
UniProt Q00613, whole entry: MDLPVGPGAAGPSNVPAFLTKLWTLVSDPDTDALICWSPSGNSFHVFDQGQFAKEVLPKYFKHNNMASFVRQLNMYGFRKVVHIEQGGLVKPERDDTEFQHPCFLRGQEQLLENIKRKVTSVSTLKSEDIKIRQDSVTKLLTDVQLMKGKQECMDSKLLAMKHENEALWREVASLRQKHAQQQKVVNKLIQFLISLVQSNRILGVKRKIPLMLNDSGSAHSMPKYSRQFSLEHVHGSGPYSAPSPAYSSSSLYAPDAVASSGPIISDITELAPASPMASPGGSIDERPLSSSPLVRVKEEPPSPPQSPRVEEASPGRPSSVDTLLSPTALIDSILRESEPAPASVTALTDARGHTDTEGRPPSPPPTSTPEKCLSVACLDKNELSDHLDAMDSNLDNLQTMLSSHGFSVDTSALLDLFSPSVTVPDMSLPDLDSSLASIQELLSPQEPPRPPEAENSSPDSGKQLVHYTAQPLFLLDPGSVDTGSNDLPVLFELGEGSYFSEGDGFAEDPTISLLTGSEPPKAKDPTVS

Experiments:
[1] = ATG_GLI_CIS: Attagene CIS-FACTORIAL HepG2 Assay for human Zinc Finger Protein GLI1 (AID 2282945); conditions: HepG2, Attagene cis-factorial reporter mRNA, GLI element; actives raise or lower the signal
Protocol: (§1) ATG_CIS is a cell-based, multiplexed-readout assay that uses HepG2, a human liver cell line, with measurements taken at 24 hours after chemical dosing in a 24-well plate.ATG_GLI_CIS is one of 52 assay component(s) measured or calculated from the ATG_CIS assay. It is designed to make measurements of mRNA induction, a form of inducible reporter, as detected with fluorescence intensity signals by Reverse transcription polymerase chain reaction (RT-PCR) and Capillary electrophoresis technology.Data from the assay component ATG_GLI_CIS was analyzed into 1 assay endpoint. This assay endpoint, ATG_GLI_CIS, was analyzed with bidirectional fitting relative to DMSO as the negative control and baseline of activity. Using a type of inducible reporter, measures of mRNA for gain or loss-of-signal activity can be used to understand the reporter gene at the transcription factor-level as they relate to the gene GLI1. Furthermore, this assay endpoint can be referred to as a primary readout, because this assay has produced multiple assay endpoints where this one serves a reporter gene function. To generalize the intended target to other relatable targets, this assay endpoint is annotated to the dna binding intended target family, where the subfamily is zinc finger.
(§2) Human liver HepG2 cells are transiently transfected with multiple reporter transcription units (MRTUs) in 6-well plates using FuGene 6 reagent (Roche; 3 ml FuGene/1 mg DNA). The MRTU constructs are regulated by a cis-regulating element (promoter). […] A major difference between the CIS and TRANS system is that in CIS activities of endogenous TFs are measured, whereas the TRANS assay evaluates changes in activities of exogenous, chimeric NR-Gal4 proteins. […] At the end of 24 hour incubation, total RNA was isolated using TriZol reagent (Invitrogen). The isolated RNA is then reverse-transcribed using oligo(dT) primer and Mo-MLV reverse transcriptase (Invitrogen) with DNAse I (Ambion) treatment for 30 min. The one-tenth of the produced cDNA was amplified by PCR using Taq DNA polymerase (Invitrogen) and two reporter sequence-specific primers. The PCR products were fluorescently labeled by primer extension with 6-arboxyfluorescein (6-FAM) 5'-labeled reporter sequence-specific primer (2 min at 95 C, 20 s at 68 C and 10 min at 72 C) and these products were digested with 5U of HpaI (New England Biolabs) for 2h at 37 C. The fragments were purified using Qiaquick PCR columns (Qiagen), analyzed on an ABI 3130xL genetic analyzer (Applied Biosystems) with peak positions identified by using a set of X-rhodamine (ROX)-labeled MapMarker1000 molecular weight standards (BioVentures). The raw capillary electrophoresis data was processed using Attagraph software (Attagene).

[2] = target: Bile acid receptor (Homo sapiens) (UniProt Q96RI1); experiment: ATG_IR1_CIS: Attagene CIS-FACTORIAL HepG2 Assay for human Nuclear Receptor Subfamily 1 Group H Member 4 (NR1H4), IR1 submotif (AID 2282946); conditions: IR1 reporter transcription, actives raise or lower the signal
Protocol: as §1, with “plate.ATG_IR1_CIS” for “plate.ATG_GLI_CIS”, “ATG_IR1_CIS” for “ATG_GLI_CIS”, “ATG_IR1_CIS,” for “ATG_GLI_CIS,”, “NR1H4.” for “GLI1.”, “nuclear receptor” for “dna binding”, “non-steroidal.” for “zinc finger.”
Human liver HepG2 cells are transiently transfected with multiple reporter transcription units (MRTUs) in 6-well plates using FuGene 6 reagent (Roche; 3 ml FuGene/1 mg DNA). The MRTU constructs are regulated by a cis-regulating element (promoter). […] A major difference between the CIS and TRANS system is that in CIS activities of endogenous TFs are measured, whereas the TRANS assay evaluates changes in activities of exogenous, chimeric NR-Gal4 proteins. […] The fragments were purified using Qiaquick PCR columns (Qiagen), analyzed on an ABI 3130xL genetic analyzer (Applied Biosystems) with peak positions identified by using a set of X-rhodamine (ROX)-labeled MapMarker1000 molecular weight standards (BioVentures). […]

[3] = ATG_GRE_CIS: Attagene CIS-FACTORIAL HepG2 Assay for human Glucocorticoid Response Elements (GRE) (AID 2282947); conditions: HepG2 GRE cis-reporter, Attagene multiplex mRNA; actives raise or lower the signal
In short: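 Reporter transcripts read by RT-PCR with capillary electrophoresis fluorescence after a 24 h chemical exposure of HepG2 cells transiently transfected with multiple cis-element reporter units. Gain or loss fitted against DMSO.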

[4] = ATG_ISRE_CIS: Attagene CIS-FACTORIAL HepG2 Assay for human Interferon Regulatory Factor 1 (IRF1) binding to an Interferon-Stimulated Response Element (ISRE) (AID 2282948); conditions: HepG2 ISRE cis-reporter (Attagene), mRNA transcription readout; actives raise or lower the signal
In short: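 Endogenous transcription factor activity read as reporter transcript abundance via RT-PCR and capillary electrophoresis. HepG2 cells transiently transfected, 24 h chemical exposure. Gain or loss fitted against DMSO baseline.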

[5] = ATG_M_32_CIS: Attagene CIS-FACTORIAL HepG2 Assay for M32 Transcription Factor (Internal Marker) (AID 2282949); conditions: HepG2 Attagene cis-factorial M32 reporter, mRNA; actives raise or lower the signal;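 also: background control marker of the multiplexed CIS panel rather than a real target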
In short: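 HepG2 transfectants (cis-regulated reporter transcription units) dosed 24 h. Reporter mRNA by RT-PCR plus CE, analysed as gain or loss relative to DMSO.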

[6] = ATG_M_06_CIS: Attagene CIS-FACTORIAL HepG2 Assay for M06 Transcription Factor (Internal Marker) (AID 2282950); conditions: HepG2 Attagene CIS-FACTORIAL M06 internal marker reporter; actives raise or lower the signal
In short: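 Terse: HepG2, transient MRTU transfection (FuGene 6), 24 h dosing; total RNA, oligo(dT) RT, PCR, FAM label, HpaI cut, capillary electrophoresis; bidirectional fit vs DMSO baseline; background-control endpoint.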

[7] = target: Hypoxia-inducible factor 1-alpha (Homo sapiens) (UniProt Q16665); experiment: ATG_HIF1a_CIS: Attagene CIS-FACTORIAL HepG2 Assay for human Hypoxia Inducible Factor 1 (HIF1A) (AID 2282951); conditions: HepG2 Attagene cis-factorial HIF1a reporter transcription; actives raise or lower the signal
Protocol: as §1, with “plate.ATG_HIF1a_CIS” for “plate.ATG_GLI_CIS”, “ATG_HIF1a_CIS” for “ATG_GLI_CIS”, “ATG_HIF1a_CIS,” for “ATG_GLI_CIS,”, “HIF1A.” for “GLI1.”, “basic helix-loop-helix protein.” for “zinc finger.”
as §2

[8] = target: Hepatocyte nuclear factor 6 (Homo sapiens) (UniProt Q9UBC0); experiment: ATG_HNF6_CIS: Attagene CIS-FACTORIAL HepG2 Assay for human Hepatocyte Nuclear Factor 6 (HNF6) (AID 2282952); conditions: HepG2 Attagene cis-factorial HNF6 reporter transcription; actives raise or lower the signal
In short: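 Using cis-element reporters in HepG2 liver cells, the assay tracks endogenous factor-driven transcription 24 h post-dosing. Signal comes from 6-FAM-labelled, HpaI-digested RT-PCR fragments, with gain or loss scored against DMSO.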

[9] = ATG_MRE_CIS: Attagene CIS-FACTORIAL HepG2 Assay for human Metal Responsive Element (MRE) (AID 2282954); conditions: HepG2 MRE cis-reporter transcription, Attagene multiplex; actives raise or lower the signal
In short: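 Endogenous MRE-dependent transcription read as reporter mRNA in transiently transfected human HepG2 cells at 24 h. RNA reverse-transcribed, PCR-amplified, labelled and resolved by capillary electrophoresis; gain or loss relative to DMSO.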

[10] = target: Heat shock factor protein 1 (Homo sapiens) (UniProt Q00613); experiment: ATG_HSE_CIS: Attagene CIS-FACTORIAL HepG2 Assay for human Heat Shock Transcription Factor 1 (HSE) (AID 2282953); conditions: HepG2 HSE cis-reporter, Attagene RNA transcription; actives raise or lower the signal
In short: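 Read-out: fluorescence of reporter-specific RT-PCR fragments separated by capillary electrophoresis. HepG2 carrying transfected cis-element reporter units; 24 h dosing; activity fitted in both directions relative to DMSO baseline.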

Measured: outcome

CCOP(=O)(Cl)Cl
not listed: [10]
inactive: all other assays above

CC(C)OP(OC(C)C)OC(C)C
inactive: all assays above

ClCCNCCCl
inactive: all assays above

O=[N+]([O-])c1ccccc1[N+](=O)[O-]
not listed: [2]
inactive: all other assays above

ClCCOP(OCCCl)OCCCl
not listed: [2]
inactive: all other assays above
